Reference: article PMC7603008 (Materials, 2020)

Tested on: hDPCs transplanted into immunocompromised mice
Test: Ex vivo subcutaneous transplantation of hDPCs with HA/TCP into immunocompromised mice
Assay type: in vivo
Conditions: 12 weeks
Protocol: Human root segments (<5 mm in thickness) were prepared from extracted human teeth after pulp tissues were removed according to our previously reported protocol. Human DPCs (2 × 10^6) were mixed with hydroxy apatite/tricalcium phosphate (HA/TCP) ceramic powder (Zimmer, Warsaw, IN, USA) alone or with Cpne7-DP (10 µg) in an 0.5% fibrin gel and then transplanted subcutaneously into immunocompromised mice (NIH-bg-nu-xid; Harlan Laboratories, Indianapolis, IN, USA) for 6 or 12 weeks. Dentin/pulp-like tissue formation in the emptied root canal space was evaluated after mixing hDPCs (2 × 10^6) with Cpne7-DP (10 µg) in a 0.5% fibrin gel and inserting the mixture into emptied root canal space of the human root segments for 6 weeks. Harvested samples were fixed in 4% in paraformaldehyde, decalcified in 10% EDTA (pH 7.4), embedded in paraffin, and stained with hematoxylin and eosin (H&E) (Vector Laboratory, Burlingame, CA, USA), Masson’s Trichrome Stain (Polysciences, Warrington, PA, USA), or processed for immunohistochemical analysis. For immunohistochemistry, the sections were incubated overnight at 4 °C with rabbit polyclonal DSP and BSP produced, as described previously at a dilution of 1:150. Biotin-labeled goat anti-rabbit IgG (Vector Laboratory) was incubated with the sections at room temperature for 30 min, which were then reacted with the avidin-biotin-peroxidase complex (Vector Laboratory). Signals were converted using a diaminobenzidine kit (Vector Laboratory). Nuclei were stained with hematoxylin.
Samples were fixed in 0.1 M cacodylate buffer (pH 7.3) containing 2.5% glutaraldehyde for 30 min and in 0.1 M cacodylate buffer (pH 7.4) containing 1% osmium tetroxide for 1 h. Samples were then rapidly dehydrated through an ethanol gradient. After sputter coating with gold, samples were observed under a scanning electron microscope (S-4700, HITACHI, Tokyo, Japan).

Question: How did the “BSP immunohistochemical staining of mineralized tissue” value (HA/TCP transplants) turn out when “rBMP2: recombinant bone morphogenetic protein 2” was run?
Answer: The value was “strong BSP”.

Question: And the “DSP immunohistochemical staining of mineralized tissue” value (HA/TCP transplants)?
Answer: The value was “much weaker DSP expression”.

Question: And the “Tissue formed by transplanted hDPCs” value (hDPCs with HA/TCP in 0.5% fibrin gel, subcutaneous in immunocompromised mice, H&E, Cpne7-DP 10 µg)?
Answer: The value was “typical bone-like structure”.
